Screening data (PubChem)
miR-21 reporter – miR-21 reporter, rising signal. HeLa miR-21 FLuc reporter, luciferase, 48 h. Potency, µM (highest dose often 38.3 µM), for the others: at the highest dose reporter change, positive = more light. 340,000 tested, under 10 active. AID 2288; active = well fitted rising curve with a large enough effect; inconclusive = small, poorly fitted or top-dose-only effect; inactive = no such curve, though single readings can be large or run the other way;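 further: % of control where 0% means no effect; miR-21 action dims this reporter so a rising signal means less miR-21 action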
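HeLa cells endogenously expressing miR-21, stably carrying CMV-driven firefly luciferase with a downstream miR-21 binding site, 2000 cells/well. Titrations up to approximately 40 uM, 48 hours; luciferase luminescence read.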
JMJD2E inh – JMJD2E (human) inhibition | Potency, µM (highest dose often 57.1 µM), without a hit: top-dose activity change, negative = inhibition, usual class: inhibitors | 230,000 tested, 1.6% active | B2RXH2 | JMJD2E catalytic domain, FDH-coupled NADH fluorescence (FDH is formaldehyde dehydrogenase);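 further: potency means the concentration at half of the fitted maximal effect; 0% = wells with enzyme and -100% = buffer wells without enzyme; nearly all actives have a fitted effect of over 50% in size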
ALDH1A1 inh – inhibitors of human aldehyde dehydrogenase 1A1. 220,000 tested, 7.3% active. Purified ALDH1A1, NADH fluorescence, propionaldehyde substrate. Potency, µM (doses to about 75.3 µM), inactives show at the highest dose activity, negative = inhibition, actives largely listed as inhibitors; active means well fitted inhibition curve with a large enough effect, not every such curve was filed as active; inconclusive means small, poorly fitted or top-dose-only effect, or another doubt; inactive means no such curve, though single readings can be large or run the other way;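 further: potency means the concentration at half of the fitted maximal effect; plate controls were no enzyme wells and a reference inhibitor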
Lamin A splicing – LMNA splicing modulation; 200,000 tested, 0.01% active; AID 1487; Potency, µM (series often up to 46.1 µM), for the others: at the highest dose ratio change, negative = inhibition, most hits filed as inhibitors; HeLa LMNA splicing GFP/RFP minigene ratio, 48 h; active means well fitted inhibition curve with a large enough effect in the signal ratio, with a control signal flat, not every such curve was filed as active; inconclusive means small, poorly fitted or top-dose-only effect, or effect the other way, or a change in a side signal; the % refers to the signal ratio; further: potency means the concentration at half of the fitted maximal effect; on the % scale 0 is the no-effect control and ±100 the full control effect
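S3 HeLa cells stably expressing lamin A-EGFP splicing minigene plus DsRed2, 600 cells/well, 48 h compound exposure at 37C. Laser-scanning cytometry; analysed as GFP (500-530 nm)/RFP (575-640 nm) total intensity ratio; 0.5% DMSO vehicle.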
Sfp PPTase inh – qHTS Assay for Inhibitors of Bacillus subtilis Sfp phosphopantetheinyl transferase (PPTase). Potency, µM, inactives show max response, negative = inhibition, most hits filed as inhibitors. Biochemical Sfp PPTase activity, qHTS. AID 1490, 2009. 4'-phosphopantetheinyl transferase ffp (Bacillus subtilis), Q9F4F7. hit rate 3.5% among 310,000; active = well fitted inhibition curve with a large enough effect; inconclusive = small, poorly fitted or top-dose-only effect, or another doubt; inactive = no such curve, though single readings can be large or run the other way;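 also: the enzyme is Sfp with the accession as filed and its product quenches rhodamine fluorescence; potency is read from the fitted curve at half-maximal effect; 0% = enzyme reaction without inhibitor and -100% = no enzyme wells; top concentration of the series not given in the record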
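Compounds were incubated with enzyme (final 15 nM) for 15 min at room temperature before substrate addition started the reaction. Fluorescence at 525 nm excitation, 598 nm emission was recorded immediately and after 30 minutes.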
G9a block – G9a (human) methyltransferase inhibition; AID 504332; Potency, µM (series often up to 102 µM), for the others: top-dose activity, negative = inhibition, usual class: inhibitors; 350,000 tested, 8.8% active; G9a H3K9 monomethylation, AlphaScreen, 2 h; further: potency means the concentration at half of the fitted maximal effect; on the % scale 0 is the no-effect control and ±100 the full control effect; nearly all actives have a fitted effect of over 75% in size
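Quantitative HTS format: methyltransferase activity on a biotin-tagged H3K9 peptide is measured by AlphaScreen, using a rabbit anti-monomethyl-H3K9 antibody with streptavidin donor and anti-IgG acceptor beads. Final levels are 20 nM enzyme, 500 nM peptide, 20 uM SAM; 2 h RT.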
* = called active by the depositor; ? = inconclusive; nt = no result; [ ] = dose if it differs, or a comment. Most compounds without a hit are left out; they make up all but 13% or so of the library. Unless noted, the call rests on the fitted dose curve; in most records, active means well fitted curve in the direction sought with a large enough effect; inconclusive means small, poorly fitted or top-dose-only effect, or another doubt; inactive means no such curve, though single readings can be large; an effect the other way counts as inactive or inconclusive.

SMILES | miR-21 reporter | JMJD2E inh | ALDH1A1 inh | Lamin A splicing | Sfp PPTase inh | G9a block
COc1cccc(C2/C(=C(\O)c3ccc4c(c3)OCCO4)C(=O)C(=O)N2Cc2cccnc2)c1 (stereo not given) | -4.5% | nt | nt | nt | 2.7% | 56.2µM*
COc1cc(C2/C(=C(\O)c3ccc4c(c3)OCCO4)C(=O)C(=O)N2Cc2ccccc2)ccc1O (stereo not given) | -5.0% | nt | nt | nt | -5.1% | nt
O=C1C(=O)N(Cc2ccncc2)C(c2ccccc2F)/C1=C(\O)c1ccc2c(c1)OCCO2 (stereo not given) | -7.6% | nt | nt | nt | 3.5% | 39.8µM*
O=C1C(=O)N(Cc2cccnc2)C(c2cccc([N+](=O)[O-])c2)/C1=C(\O)c1ccc2c(c1)OCCO2 (stereo not given) | 1.6% | nt | nt | nt | 17.7% | ?
CNC(=O)C(N)CSC(C)C1=C(C)c2cc3[n-]c(cc4nc(cc5[n-]c(cc1n2)c(C)c5CCC(=O)O)C(CCC(=O)O)=C4C)c(C)c3C(C)SCC(N)C(=O)NC.[Fe+2] (stereo not given) | nt | nt | nt | nt | -1.8% | -35.6%[12.7 µM]
Cc1cc(Nc2ccc(Br)cc2)nc(C)n1 | -45.9% | nt | nt | ? | nt | -3.3%[59 µM]
CC1Cc2cc(/C(O)=C3/C(=O)C(=O)N(Cc4ccncc4)C3c3ccc(N(C)C)cc3)ccc2O1 (stereo not given) | 0.6% | nt | nt | nt | 4.2% | 22.4µM*
COc1ccc(C2/C(=C(/O)c3ccc4c(c3)CC(C)O4)C(=O)C(=O)N2Cc2cccnc2)cc1 (stereo not given) | -0.1% | nt | nt | nt | 6.2% | 39.8µM*
CCOc1ccc(N(CC)S(=O)(=O)N2CCCC(C(=O)NCc3ccccc3OCC)C2)cc1 (stereo not given) | 29.2% | nt | nt | nt | nt | -1.5%[59 µM]
O=c1oc2ccc3ccccc3c2cc1-c1nnc(Nc2cc(C(F)(F)F)ccc2Cl)s1 | -2.9% | nt | nt | 2.5%[46 µM] | nt | -3.4%[59 µM]
Cc1ccsc1/C=C/c1n[nH]c(=O)c(C#N)c1C | -11.5% | nt | nt | nt | 13.6% | 1.4%
N#C/C(=C\c1cccc(NC(=O)c2ccccc2Cl)c1)C(=O)NCCc1ccccc1 | 9.8% | ? | 25.1µM* | ? | 8.4% | ?
COCCCNC(=O)/C(C#N)=C/c1cccc(NC(=O)c2ccccc2Cl)c1 | -0.2% | -14.5% | 14.1µM* | -17.0% | 20.6% | -11.4%[59 µM]
CCOc1cc2c(cc1OCC)C(c1ccccc1OC)OC(=O)C2 (stereo not given) | -0.3% | ? | 11.2µM* | -6.0% | -12.4% | 19.8%[59 µM]
Cc1cccc(NC(=O)N2CC=C(c3c[nH]c4ccccc34)CC2)c1C | -1.9% | nt | nt | nt | nt | ?

The final 2 entries of the section before are carried over, then new ones follow:
SMILES | miR-21 reporter | JMJD2E inh | ALDH1A1 inh | Lamin A splicing | Sfp PPTase inh | G9a block
CCOc1cc2c(cc1OCC)C(c1ccccc1OC)OC(=O)C2 (stereo not given) | -0.3% | ? | 11.2µM* | -6.0% | -12.4% | 19.8%[59 µM]
Cc1cccc(NC(=O)N2CC=C(c3c[nH]c4ccccc34)CC2)c1C | -1.9% | nt | nt | nt | nt | ?
CC(C)(C)N(Cc1ccccc1)C(=O)c1ccc(Cl)cc1[N+](=O)[O-] | 9.1% | 2.2% | -11.0% | -27.2%[46 µM] | -1.0% | ?
O=C(c1ccc(Cl)cc1[N+](=O)[O-])N(Cc1ccccc1)Cc1ccccc1 | 2.1% | -2.5% | -6.4% | -8.3% | 5.0% | 79.4µM*
CCN(C(=O)c1ccc(Cl)cc1[N+](=O)[O-])c1ccccc1C | 11.3% | 9.7% | -2.2% | nt | 13.3% | 39.8µM*
O=C1CC2(CCCC2)CC(=O)N1CCCCNC[C@H]1COc2ccccc2O1 | nt | 10.2% | 10µM* | nt | 8.9% | nt
CCOc1ccc(NC2c3ccccc3C(=O)N2Cc2ccco2)cc1 (stereo not given) | -1.5% | -5.6% | 5.62µM* | ? | -23.7% | 44.7µM*
O=C1c2ccccc2C(Nc2ccc(F)c(Cl)c2)N1Cc1ccco1 (stereo not given) | -8.1% | -25.9% | ? | ? | 31.6µM* | 44.7µM*
COc1ccc(OC)c(NC2c3ccccc3C(=O)N2Cc2ccc3c(c2)OCO3)c1 (stereo not given) | -8.0% | -9.1% | -8.5% | 3.4% | 6.5% | 31.6µM*
COc1ccc(NC2c3ccccc3C(=O)N2Cc2ccco2)cc1OC (stereo not given) | -5.0% | -1.1% | -8.0% | -17.3% | -1.6% | ?
O=C1c2ccccc2C(Nc2ccc(S(=O)(=O)N3CCCCC3)cc2)N1Cc1ccco1 (stereo not given) | -8.3% | -7.3% | ? | -9.9% | 39.8µM* | ?
O=C1c2ccccc2C(Nc2ccc(S(=O)(=O)N3CCOCC3)cc2)N1Cc1ccco1 (stereo not given) | 2.3% | 1.5% | -11.3% | -3.4% | -5.1% | ?
O=C1c2ccccc2C(Nc2ccc3c(c2)OCO3)N1Cc1ccc2c(c1)OCO2 (stereo not given) | -37.7% | 8.7% | ? | ? | ? | 39.8µM*
O=C1c2ccccc2C(Nc2ccc3c(c2)OCO3)N1Cc1ccco1 (stereo not given) | -21.2% | -8.5% | ? | ? | -28.6% | 10µM*
O=C1c2ccccc2C(Nc2cccnc2)N1Cc1ccc2c(c1)OCO2 (stereo not given) | -10.0% | 4.2% | -2.1% | -5.3% | 21.0% | ?
CCc1ccc(CN(Cc2ccco2)C(=O)c2cc(-c3ccc(C)c(F)c3)on2)cc1 | 25.1% | nt | nt | nt | nt | -6.0%[59 µM]
CCC1(C)Cc2c(sc3[nH]c(=O)[nH]c(=O)c23)CS1 (stereo not given) | -17.0% | ? | ? | 2.9% | 22.4µM* | ?
CCC1(C)Cc2c(sc3[nH]c(=S)[nH]c(=S)c23)CO1 (stereo not given) | -4.2% | nt | nt | nt | 10.6% | -44.1%[2.33 µM]
Cc1ccc(NC(=O)C2CCCN2S(=O)(=O)c2cccc3cccnc23)cc1C (stereo not given) | 0.0% | nt | nt | nt | nt | -2.5%[59 µM]
CC(=O)Nc1sc2c(c1C#N)CCC(C)C2 (stereo not given) | -20.6% | -14.8% | -7.0% | nt | 2.2% | 15.6%
Cc1ccc(C)n1-c1sc2c(c1C#N)CCC(C)C2 (stereo not given) | -6.5% | 4.0% | 25.1µM* | ? | -5.3% | ?
CCCC(c1nnnn1CS(=O)(=O)c1ccc(C)cc1)N1CCN(C2CCCC2)CC1 (stereo not given) | -1.0% | nt | nt | nt | 9.8% | 50.1µM*
O[C@@H](c1ccccc1)C1CCN(CCc2ccccc2)CC1 | nt | ? | -3.5% | nt | 5.8% | nt
CCCN(CCO)C1CCN(CCc2ccccc2)CC1 | -4.5% | nt | nt | nt | 6.1% | 50.1µM*
CC(C)(CO)NC(=S)NCc1ccco1 | -6.1% | -18.7% | ? | nt | 15.8µM* | 39.8µM*
Cc1cccnc1NC(=S)NCc1ccco1 | -8.7% | -15.8% | 12.6µM* | nt | 15.8µM* | 2.51µM*
S=C(NCc1ccco1)Nc1ccc(Cl)cn1 | -11.8% | nt | nt | nt | -7.2% | 8.91µM*
Cc1cccc(NC(=S)NCc2ccco2)c1C | -5.3% | 5.7% | ? | -4.0% | 5.9% | ?
COc1ccc(-c2cn(CCO)c(-c3ccncc3)n2)cc1 | nt | nt | nt | nt | nt | 8.0%[2.33 µM]
CCC/C(O)=C1\C(=O)CCCC1=NCCc1c(C)[nH]c2ccc(OC)cc12 | 6.2% | -4.4% | ? | nt | -16.0% | -0.3%[59 µM]

Full records as entered above.
`O[C@@H](c1ccccc1)C1CCN(CCc2ccccc2)CC1` across the screens: miR-21 reporter: nt; JMJD2E inh: ?; ALDH1A1 inh: -3.5%; Lamin A splicing: nt; Sfp PPTase inh: 5.8%; G9a block: nt
`Cc1cccc(NC(=S)NCc2ccco2)c1C` across the screens: miR-21 reporter: -5.3%; JMJD2E inh: 5.7%; ALDH1A1 inh: ?; Lamin A splicing: -4.0%; Sfp PPTase inh: 5.9%; G9a block: ?
